Experimental data published in patent US20240025918A1, “KRAS G12D Inhibitors” (Jacobio Pharmaceuticals Co., Ltd, priority 2020, published 2024).
pIC50: −log10 of the molar value.

The chains behind the UniProt entries cited, without tags or fusion partners. Residues count along the entry.
UniProt P01116, 1-169 isoform 2 G12D limits assumed: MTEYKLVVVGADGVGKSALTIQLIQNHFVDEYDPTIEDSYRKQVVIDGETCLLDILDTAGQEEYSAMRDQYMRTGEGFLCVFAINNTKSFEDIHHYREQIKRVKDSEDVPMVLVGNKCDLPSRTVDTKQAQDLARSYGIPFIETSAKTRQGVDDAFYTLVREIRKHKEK

Columns and labels:
[1] = tested on: AGS cells expressing KRAS G12D; experiment: Phospho-ERK1/2(THR202/TYR204) HTRF assay; conditions: Phospho-ERK1/2 in AGS cells, 2 hours incubation
Procedure: AGS cells expressing KRAS G12D were cultured in F12K medium (Gibco) containing 10% fetal bovine serum (Gibco). The AGS cells in culture medium were seeded in 96-well plates at a concentration of 40,000 cells/well and then put in a 37° C./5% CO2 cell incubator to incubate overnight. The next day, culture medium was removed and the compound diluted in assay medium (F12K, 0.1% FBS) was added in each well. After 2 hours incubation in a 37° C./5% CO2 cell incubator, the assay medium in 96-well plates was removed, then 50 μL of 1× blocking reagent-supplemented lysis buffer (Cisbio) was added and the plates were incubated at 25° C. for 45 min with shaking. 10 μL of cell lysates from the 96-well plates were transferred to a 384-well plate (Greiner) containing 2.5 μL/well HTRF® pre-mixed antibodies (Cisbio 64AERPEH). Incubate 4 hours at 25° C. and then read HTRF signals on Tecan Spark multimode microplate reader. The data were analyzed using a 4-parameter logistic model to calculate IC50 values.

[2] = target: GppNp-loaded HIS-KRAS(G12D, aa 1-169) and cRAF RBD (Homo sapiens, UniProt P01116, G12D); experiment: GTP-KRAS and cRAF interaction assay (HTRF); conditions: 2 hours at 25° C.
Procedure: GppNp-loaded HIS-KRAS(G12D, aa 1-169) was pre-incubated with a compound in the presence of 200 μM GTP in a 384-well plate (Greiner) for 15 min, then cRAF RBD(GST tag, aa 50-132, CreativeBioMart), MAb Anti GST-d2 (Cisbio) and MAb Anti 6HIS-Tb cryptate Gold (Cisbio) were added to the assay wells (Final concentration: 2.0 nM GppNp-loaded HIS-KRAS(G12D), 100 μM GTP, 35 nM cRAF RBD, 1 μg/mL MAb Anti GST-d2, 52.5 ng/mL MAb Anti 6HIS-Tb cryptate Gold) and incubated for 2 hours at 25° C. Wells containing same percent of DMSO served as vehicle control, and wells without KRAS served as low control. HTRF signals were read on Tecan Spark multimode microplate reader and HTRF ratios were calculated under manufacturer's instructions. The percent of activation of compounds treated wells were normalized between vehicle control and low control (% Activation=(HTRF ratioCompound treated−HTRF ratioLow control)/(HTRF ratioVehicle control−HTRF ratioLow control)*100%). Then the data were analyzed by fitting a 4-parameter logistic model or calculating in Excel to calculate IC50 values.

[3] = tested on: AGS; experiment: Cell growth inhibition assay, AGS (CellTiter-Glo); conditions: read-out: AGS IC50; AGS cell viability, 6 days incubation
Procedure: AGS cultured in F12K medium (Gibco) containing 10% fetal bovine serum (Gibco). Cells in culture medium were plated in 96-well plates at a concentration of 500 cells/well (100 μL/well) and allowed to attach overnight.
(§1) The next day, compounds were diluted in culture medium and added to the plates. After 6 days incubation in a 37° C./5% CO2 cell incubator, the cell viability was detected by CellTiter-Glo® Luminescent Cell Viability Assay kit (Promega). Luminescent signals were read on Tecan Spark multimode microplate reader and analyzed using a 4-parameter logistic model to calculate IC50 values.

[4] = tested on: AsPC-1; experiment: Cell growth inhibition assay, AsPC-1 (CellTiter-Glo); conditions: read-out: AsPC-1 IC50; AsPC-1 cell viability, 6 days incubation
Procedure: AsPC-1 cultured in RPMI-1640 medium (Gibco) containing 10% fetal bovine serum (Gibco). Cells in culture medium were plated in 96-well plates at a concentration of 1000 cells/well (100 μL/well) and allowed to attach overnight.
as §1

[5] = target: GDP-loaded HIS-KRAS(G12D, aa 1-169) (Homo sapiens, UniProt P01116, G12D); experiment: SOS1 catalyzed nucleotide exchange assay (TR-FRET); conditions: 4 hours at 25° C.
Procedure: GDP-loaded HIS-KRAS(G12D, aa 1-169) was pre-incubated with a compound in the presence of 10 nM GDPin a 384-well plate (Greiner) for 15 min, then purified SOS1 ExD(Flag tag, aa 564-1049), BODIPY™ FL GTP (Invitrogen) and MAb (monoclonal antibody) Anti 6HIS-Tb cryptate Gold (Cisbio) were added to the assay wells (Final concentration: 1.5 nM GDP-loaded HIS-KRAS(G12D), 5 nM GDP, 0.5 μM SOS1 ExD, 80 nM BODIPY™ FL GTP, 52.5 ng/mL MAb Anti 6HIS-Tb cryptate Gold) and incubated for 4 hours at 25° C. Wells containing same percent of DMSO served as vehicle control, and wells without KRAS served as low control. TR-FRET signals were read on Tecan Spark multimode microplate reader. The parameters were F486: Excitation 340 nm, Emission 486 nm, Lag time 100 μs, Integration time 200 μs; F515: Excitation 340 nm, Emission 515 nm, Lag time 100 μs, Integration time 200 μs. TR-FRET ratios for each individual wells were calculated by equation: TR-FRET ratio=(Signal F515/Signal F486)*10000. The percent of activation of compounds treated wells were normalized between vehicle control and low control (% Activation=(TR-FRET ratioCompound treated−TR-FRET ratioLow control)/(TR-FRET ratioVehicle control−TR-FRET ratioLow control)*100%). Then the data were analyzed by fitting a 4-parameter logistic model or calculating in Excel to calculate IC50 values.

SMILES	pIC50 [1]	pIC50 [2]	pIC50 [3]	pIC50 [4]	pIC50 [5]
C#Cc1cccc2cc(O)cc(-c3c(F)cc4c(N5CC6CCC(C5)N6)nc(OCC5(CN6CC7COCC7C6)CC5)nc4c3F)c12 (single isomer, unassigned) [Compound 24B]	8.12	7.67	8.55	7.22	9.04
C#Cc1cccc2cc(O)cc(-c3c(F)cc4c(N5CC6CCC(C5)N6)nc(OCC5(CN6C[C@H]7C[C@@H]6CO7)CC5)nc4c3F)c12 (single isomer, unassigned)	8.42	–	9.16	7.90	9.00
C#Cc1cccc2cc(O)cc(-c3c(F)cc4c(N5CC6CCC(C5)N6)nc(OCC5(CN6CC7COCC7C6)CC5)nc4c3F)c12 (single isomer, unassigned) [Compound 24A]	–	< 5.00	–	–	< 7.00
C#Cc1cccc2cc(O)cc(-c3c(F)cc4c(N5CC6CCC(C5)N6)nc(OCC5(CN6CC7CC6CO7)CC5)nc4c3F)c12 (single isomer, unassigned) [Compound 36A]	8.77	7.72	8.56	7.93	9.06
C#Cc1cccc2cc(O)cc(-c3c(F)cc4c(N5CC6CCC(C5)N6)nc(OCC5(CN6CCC7(CC6)CC7(F)F)CC5)nc4c3F)c12 (single isomer, unassigned)	7.69	7.76	8.34	7.84	8.83
